For this test, the system named is Interleukin 6 (IL6)—JAK1/JAK2-STAT4 Pathway. Kind of test: IL6 CellSensor cell pathway engagement assay (SIE-bla ME-180 cells). To be noted: Table 3, comparative examples.

Each structure is given as a SMILES string.

This note sets out measurements from patent US10875847B2, “Aminopyrazoles as selective janus kinase inhibitors” (Intervet Inc., priority 2016, dated 2020).

With `CCS(=O)(=O)N1CC(CC#N)(n2cc(-c3ncnc4[nH]ccc34)cn2)C1` [Baricitinib], the EPO/IL-6 worked out at 0.43x.
